Reference: US10639373B2, “Pyrrolobenzodiazepine antibody drug conjugates and methods of use” (priority 2015, dated 2020)

Legend:
[1] = Exploratory dose-escalation toxicology study in cynomolgus monkeys; assay type: in vivo, cynomolgus monkey; settings: for maximum tolerated dose (MTD): IV
Experimental: An exploratory dose-escalation toxicology study was conducted in cynomolgus monkeys. Animals received two or four q3w slow IV bolus doses of anti-HER2 hu7C2 LC:K149C-LD-51 starting at a dose level of 1 mg/kg. Dose escalations were staggered by 2-3 weeks.
Toxicity was assessed by clinical and ophthalmic exams and clinical pathology (hematology, serum chemistry, coagulation and urinalysis; approximately weekly throughout the study). Gross and microscopic histopathology was conducted on tissues collected at necropsy three weeks after the last dose.

[2] = tested on: MMTV-HER2 Founder #5 (Fo5) murine mammary tumor allograft; assay: Example 14 in vivo mouse allograft efficacy (FIG. 15); set-up: species or system nu/nu mice; settings: single intravenous injection
Excerpt: The efficacy of the anti-Her2 antibody-drug conjugates (ADCs) was investigated in a mouse allograft model of MMTV-HER2 Founder #5 (murine mammary tumor). The MMTV-HER2 Founder #5 (Fo5) model (developed at Genentech) is a transgenic mouse model in which the human HER2 gene, under transcriptional regulation of the murine mammary tumor virus promoter (MMTV-HER2), is overexpressed in mammary epithelium. The overexpression causes spontaneous development of mammary tumors that overexpress the human HER2 receptor. The mammary tumor from one of the founder animals (founder #5, Fo5) has been propagated in FVB mice (Charles River Laboratories) by serial transplantation of tumor fragments.
For efficacy studies, the Fo5 transgenic mammary tumor was surgically transplanted into the thoracic mammary fat pad of female nu/nu mice (Charles River Laboratories; Hollister, Calif.) as tumor fragments of approximately 15-30 mm^3 in size. When the allograft tumors reached an average tumor volume of 100-300 mm3 (referred to as Day 0), animals were randomized into groups of 7 mice each and received a single intravenous injection of the ADCs. Tumors and body weights of mice were measured 1-2 times a week throughout the study. […] Tumor volume was measured in two dimensions (length and width) using calipers and the tumor volume was calculated using the formula: Tumor size (mm^3)=0.5×(length×width×width).

[3] = four q3w doses of 16 mg/kg, histology

B1: Anti-HER2 hu7C2 LC:K149C-LD-51: ADC of anti-HER2 hu7C2 LC:K149C antibody with LD-51; Table 9 lists it under its linker-drug; DAR 1.9 (conjugate)
heavy: EVQLVQSGAEVKKPGASVKVSCKASGYSFTGYWMNWVRQAPGQGLEWIGMIHPLDAEIRANQKFRDRVTITVDTSTSTAYLELSSLRSEDTAVYYCARGTYDGGFEYWGQGTLVTVSSASTKGPSVFPLAPSSKSTSGGTAALGCLVKDYFPEPVTVSWNSGALTSGVHTFPAVLQSSGLYSLSSVVTVPSSSLGTQTYICNVNHKPSNTKVDKKV[no letters for human IgG1 Fc]
light: DIVMTQSPDSLAVSLGERATINCRASQSVSGSRFTYMHWYQQKPGQPPKLLIKYASILESGVPDRFSGSGSGTDFTLTISSLQAEDVAVYYCQHSWEIPPWTFGQGTKVEIKRTVAAPSVFIFPPSDEQLKSGTASVVCLLNNFYPREAKVQWCVDNALQSGNSQESVTEQDSKDSTYSLSSTLTLSKADYEKHKVYACEVTHQGLSSPVTKSFNRGEC
For B1, the “maximum tolerated dose (MTD)” value ([1]; 2×q3w regimen) was 16 mg/kg, the “maximum tolerated dose (MTD)” value ([1]; 4×q3w regimen) was 8 mg/kg and the major target organs ([1]; cynomolgus monkey, in vivo) was “kidney, bone marrow, skin, lung, lymphoid organs (spleen, thymus, lymph nodes), small intestine, and eye (cornea)”. The lung alveolar degeneration/fibroplasia [1, 3] was “mild”, the “lymphoid depletion (thymus, spleen, lymph nodes)” value [1, 3] was “mild-moderate” and the renal tubular degeneration [1, 3] was “mild-moderate”. For the same molecule, the skin pigmentation/hyperkeratosis [1, 3] was “mild”, the “small intestine mucosa finding” value [1, 3] was “mild” and the “anti-tumor activity compared to the vehicle group” value [2] was “clear anti-tumor activity”.
